Details: anhydrous monomodal product, compared with a trihydrate form

N-(8-[2-hydroxybenzoyl]-amino) caprylic acid sodium salt [anhydrous monomodal SNAC sodium salt]
solubility in water: good solubility in water, significantly higher than that of a trihydrate form

From patent publication US10875826B2, “Process for the manufacture of SNAC (salcaprozate sodium)” (Emisphere Technologies, Inc., priority 2006, dated 2020)
